One test addresses T1, FSHR (Homo sapiens, UniProt P23945).
T1 construct: expressed in transfected cells; Hanyaloglu
T1 sequence (P23945 18-695): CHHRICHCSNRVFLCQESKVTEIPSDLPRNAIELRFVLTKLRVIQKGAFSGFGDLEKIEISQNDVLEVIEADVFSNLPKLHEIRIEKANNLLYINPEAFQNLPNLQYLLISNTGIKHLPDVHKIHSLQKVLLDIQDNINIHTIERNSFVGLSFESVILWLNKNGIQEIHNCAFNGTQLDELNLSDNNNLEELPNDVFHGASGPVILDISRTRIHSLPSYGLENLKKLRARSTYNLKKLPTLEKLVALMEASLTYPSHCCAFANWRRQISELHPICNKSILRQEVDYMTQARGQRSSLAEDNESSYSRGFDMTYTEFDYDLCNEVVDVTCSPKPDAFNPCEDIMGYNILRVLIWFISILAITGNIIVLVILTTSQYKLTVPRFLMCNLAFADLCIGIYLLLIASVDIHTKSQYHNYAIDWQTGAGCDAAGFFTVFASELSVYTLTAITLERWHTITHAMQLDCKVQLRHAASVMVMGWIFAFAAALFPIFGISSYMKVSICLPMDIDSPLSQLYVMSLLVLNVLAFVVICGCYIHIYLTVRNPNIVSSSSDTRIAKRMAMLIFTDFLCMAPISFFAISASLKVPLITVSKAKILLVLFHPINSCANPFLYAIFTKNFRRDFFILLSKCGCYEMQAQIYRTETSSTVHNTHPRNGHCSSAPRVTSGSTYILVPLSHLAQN
The test can be described thus: rhFSH-stimulated cAMP production (CANDLES assay). The settings on record: 10, 100, or 1000 IU/L rhFSH, Fig. 1C. It is filed as cell-based. As to the method: The kinetics of rhFSH-stimulated intracellular cAMP production in HEK293-FSHR and HEK-293 cells were determined via Cyclic AMP iNdirect detection via light emission from sensor cells (CANDLES) assay, as described previously (Trehan et al. [2014]). The cells were co-cultured with GS-293 sensor cells in 12-well plates in complete DMEM/F12 medium for 24 h. Prior to the experiment, complete DMEM was replaced with freshly prepared assay medium containing a 1:1 ratio of DMEM/F12 and CO2-independent medium supplemented with 0.1% BSA (Gibco, Thermo Fisher Scientific, Waltham, Massachusetts, USA), 2% GloSensor cAMP reagent (Promega), and 100 µM 3-isobutyl-1-methylxanthine (IBMX; Sigma). The cells were equilibrated for 45 min at RT in the dark at a constant temperature of 25 °C in a plate reader (Victor, Perkin-Elmer-Wallac), and luminescence was measured for 5 min to obtain a basal measurement. Luminescence from individual wells was measured for 5 s for up to 1 h.
Endpoint extracellular cAMP production in PC-3, DU145, LNCaP, KGN, CaOV-3, OVCaR-3, MCF-7, HEK293-FSHR, and HEK-293 cells was determined according to the standard radioimmunoassay method using iodinated succinyl-cAMP (Harper and Brooker [1975]). The cells were seeded onto 24-well plates (80000 cells/well) and grown overnight in culture medium. […]
A general note: Changes in cAMP serve as a functional read-out for many G protein-coupled receptors.

In a further test the test system is HEK293-FSHR cells. The test can be described thus: CyQUANT cell proliferation assay, HEK293-FSHR cells. The class given is cell-based, human. The settings on record: rhFSH 10, 100, or 1000 IU/L, 48 h; Fig. 1D. As to the method: Cell proliferation was determined using a CyQUANT Cell Proliferation Assay (C7026, Life Technologies, Thermo Fisher Scientific). Prior to the experiments, HEK-293, HEK293-FSHR, and LNCaP cells were seeded in 96-well plates (7000 cells/well). After overnight incubation in the culture medium, the cells were starved for 4 h in basal non-supplemented DMEM/F12. The cells were then treated for 48 h with rhFSH (10, 100, or 1000 IU/L) or cetrorelix (CTX) (1, 5, 10, or 20 µM; Sigma-Aldrich), and 2.5% FSC was used as a positive control. After incubation, the medium was removed, and the plates with cells were frozen at −80 °C overnight. After thawing at room temperature (RT), 200 µl of CyQUANT GR dye/cell lysis buffer was added to each well and incubated for 5 min at room temperature (RT) in the dark. The fluorescence was read using a WALLAC Victor 2 1420 spectrophotometer (Perkin Elmer, Waltham, Massachusetts, USA) with ~ 480 nm excitation and ~ 520 nm emission maxima. The results were subtracted from a standard curve made from bacteriophage λ DNA (ranging from 50 pg/ml to 1.0 µg/ml) in CyQUANT GR/cell lysis buffer and are presented as absolute values.

Take “rhFSH: recombinant human follicle-stimulating hormone”: the “rhFSH-stimulated cAMP production in HEK293-FSHR cells” value in the test with FSHR is “dose-dependent”. In addition, in the test on HEK293-FSHR cells, the “HEK293-FSHR cell growth (proliferation) under rhFSH stimulation” value is listed as “did not promote”.

Source of the values: PMC12147355, “Targeted destruction of follicle stimulating hormone receptor-positive cancer cells in vitro and in vivo by a lytic peptide Phor21-FSHβ conjugate” (Molecular Medicine, 2025).
